# Marks after values point to notes of the source that are not given here.
# Key:
# CB1Rs [1] = target: T1, CB1Rs (Mus musculus (Mouse), UniProt P47746); experiment: [35S]GTPγS binding assay (G-protein activation) in mouse brain homogenates; assay type: biochemical
# Procedure: Mouse brain homogenates for in vitro assays were prepared as previously described. Briefly, whole brains were harvested from B6SJL mice, snap-frozen in liquid nitrogen and stored at −80° C. On the day membrane homogenates were to be prepared, brains were thawed on ice, then pooled in a 40 mL Dounce glass homogenizer and suspended in 5 volumes of ice cold homogenization buffer (50 mM HEPES, pH 7.4, 3 mM MgCl2, and 1 mM EGTA). Brains were then subjected to 10 complete strokes with an A pestle, followed by centrifugation at 40,000×g for 10 minutes at +4° C. Resulting supernatants were discarded, and the pellet was resuspended, homogenized and centrifuged similarly twice more, with supernatants being discarded. For the final resuspension and homogenization with a B pestle, ice-cold 50 mM HEPES was used in place of homogenization buffer, and homogenates were aliquoted and stored at −80° C. Protein concentrations of homogenates were determined using the BCA™ Protein Assay (Thermo Scientific, Rockford, Ill.).
# [^35S]GTPγS binding was performed as previously described. Briefly, 25 μg of mouse brain homogenates were incubated for 30 minutes at 30° C. with 0.1 nM [^35S]GTPγS, 10 μM GDP, and either cannabinoid+/−antagonist, 10 μM unlabeled GTPγS (non-specific binding) or vehicle (total binding), in triplicate, in a volume of 1 mL of buffer containing 20 mM HEPES, 10 mM MgCl2, 100 mM NaCl, 20 units/L adenosine deaminase, 0.05% BSA and the appropriate DMSO (0.1%) and/or ethanol (<0.2%) vehicle. Assay buffer containing 100 mM KCl, instead of 100 mM NaCl, was used to increase basal G-protein activity in experiments examining inverse agonism. Reactions were terminated by quick vacuum filtration through Whatman GF/B glass fiber filters, followed by five washes with ice-cold buffer (20 mM HEPES, 0.05% BSA). Filters were immediately placed into 7 mL scintillation vials to which 4 mL of ScintiVerse™ BD Cocktail scintillation fluid was added. Bound radioactivity was determined after overnight incubation at room temperature and shaking by liquid scintillation spectrophotometry with an efficiency of 93% (Tri Carb 2100 TR Liquid Scintillation Analyzer, Packard Instrument Company, Meriden, Conn.). Specific binding is expressed as picomoles of [^35S]GTPγS bound per mg of protein.
# Curve fitting and statistical analyses for in vitro experiments were performed using GraphPad Prism™ version 5.0b (GraphPad Software Inc., San Diego, Calif.). The Cheng-Prusoff equation [45] was used to convert the experimental IC50 values obtained from competition receptor binding experiments to Ki values, a quantitative measure of receptor affinity. Non-linear regression for one-site competition was used to determine the IC50 for competition receptor binding. […] Data are expressed as mean±SEM. […]
# CB1Rs [2] = target: T1, CB1Rs; conditions: mouse brain homogenates; values previously reported [39]; read-out: [3H]CP binding Ki; cited from earlier work
# [3] = concentration-effect, mouse brain homogenates
compound,measurement,setting,value
"CCCCCc1cc(O)c2c(c1)OC(C)(C)[C@@H]1CCC(C)=C[C@@H]21 [Δ^9-THC, Δ^9-tetrahydrocannabinol]","[35S]GTPγS Binding, 1 μM",CB1Rs [1]; 1 μM,0.17 ± 0.01 pmol/mg
same,"[35S]GTPγS Binding, +O-2050 (1 μM)","CB1Rs [1]; 1 μM cannabinoid (100 nM for CP-55,940) co-incubated with CB1R antagonist O-2050 1 μM",0.06 ± 0.01 pmol/mg
same,EC50,CB1Rs [1]; [3],77 ± 29.9 nM
same,[35S]GTPγS Binding Emax,CB1Rs [1]; [3],0.08 ± 0.01^c pmole/mg
same,Ki,CB1Rs [2],15.3 ± 4.5 nM

# — patent US9416103B2, “Use of the aminoalkylindole JWH-073-M4 and related compounds as neutral CB1 receptor antagonists for the treatment of alcoholism, drug abuse, obesity, and obesity-related diseases” (The Board of Trustees of the University of Arkansas, priority 2012, dated 2016)
